Values quoted from earlier work, collected in patent US20260201061A1, “COMBINATION FOR TREATMENT AND PREVENTION OF CANCER” (Hummingbird Bioscience Pte. Ltd., priority 2022, published 2026).

Tested on: LIM1215 cells
Details: cells express normal levels of EGFR

cetuximab: anti-EGFR antibody formed by the polypeptides of SEQ ID NO:99 and SEQ ID NO:100
sensitivity of LIM1215 cells: sensitive to cetuximab
